#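 How tested: cells in 96-well plates exposed to compound for 48 hours at five concentrations. The concentration for 50% growth inhibition is given as GI50. TGI: concentration producing complete growth inhibition.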
# Legend:
# Experiment in all cases: growth of human tumour cells (NCI), 48 h
# [1] = system: 786-0 renal
# [2] = system: A498 renal
# [3] = system: A549 NSCLC
# [4] = system: ACHN renal
# [5] = system: CAKI-1 renal
# [6] = system: COLO 205 colon
# [7] = system: DU-145 prostate
# [8] = system: EKVX NSCLC
# [9] = system: HCC-2998 colon
# [10] = system: HCT-116 colon
# [11] = system: HCT-15 colon
# [12] = system: HL-60(TB) leukemia
# [13] = system: HOP-62 NSCLC
# [14] = system: HS 578T breast
# [15] = system: HT29 colon
# [16] = system: IGROV1 ovarian
# [17] = system: K-562 leukemia
# [18] = system: KM12 colon
# [19] = system: LOX IMVI melanoma
# [20] = system: M14 melanoma
# [21] = system: MALME-3M melanoma
# [22] = system: MCF7 breast
# [23] = system: MDA-MB-231 breast
# [24] = system: MOLT-4 leukemia
# [25] = system: NCI-H226 lung
# [26] = system: NCI-H23 lung
structure (smiles),measurement,setting,value
Cc1ccc(S(=O)(=O)n2cc([C@@]3(O)C[C@H](CC#N)OC3=O)c3ccccc32)cc1,GI50,[1],3.79 µM
same,TGI,[1],> 100 µM
same,GI50,[2],3.29 µM
same,TGI,[2],10.7 µM
same,GI50,[3],3.49 µM
same,TGI,[3],61.8 µM
same,GI50,[4],1.56 µM
same,TGI,[4],75.5 µM
same,GI50,[5],1.12 µM
same,TGI,[5],23.1 µM
same,GI50,[6],1.73 µM
same,TGI,[6],4.22 µM
same,GI50,[7],2.1 µM
same,TGI,[7],4.62 µM
same,GI50,[8],4.11 µM
same,TGI,[8],> 100 µM
same,GI50,[9],2.18 µM
same,TGI,[9],9.15 µM
same,GI50,[10],9.2 µM
same,TGI,[10],30.7 µM
same,GI50,[11],1.53 µM
same,TGI,[11],> 100 µM
same,GI50,[12],3.22 µM
same,TGI,[12],> 100 µM
same,GI50,[13],4.36 µM
same,TGI,[13],> 100 µM
same,GI50,[14],1.86 µM
same,TGI,[14],26.2 µM
same,GI50,[15],0.504 µM
same,TGI,[15],> 100 µM
same,GI50,[16],3.09 µM
same,TGI,[16],> 100 µM
same,GI50,[17],1.25 µM
same,TGI,[17],> 100 µM
same,GI50,[18],0.805 µM
same,TGI,[18],> 100 µM
same,GI50,[19],0.511 µM
same,TGI,[19],> 100 µM
same,GI50,[20],0.449 µM
same,TGI,[20],> 100 µM
same,GI50,[21],0.357 µM
same,TGI,[21],29.3 µM
same,GI50,[22],0.274 µM
same,TGI,[22],32.3 µM
same,GI50,[23],1.88 µM
same,TGI,[23],> 100 µM
same,GI50,[24],2.55 µM
same,TGI,[24],85.8 µM
same,GI50,[25],0.966 µM
same,TGI,[25],13.9 µM
same,GI50,[26],3.5 µM
same,TGI,[26],> 100 µM
